Yeast mating assay B: variants of the scFv Ab-14

Antigen: PDVDLGDISGINAS, a 14-residue peptide of the SARS-CoV-2 spike HR2 region.

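Phage display of a naive human antibody library on the peptide gave the parent. Designed CDR sequences, proposed from the first random library and measured here. Group labels follow the data file (Ctrl: baseline library sampled from a position-specific scoring matrix, with some repeated check sequences; GPLM: also part of the Gaussian process libraries; Gen: genetic algorithm; a sequence that several methods proposed may carry one label only). The assay is AlphaSeq: two haploid yeast populations carry antibody and antigen on their surface. Binding brings cells together so that they mate, and sequencing counts the barcode pairs among the diploids. Scores were corrected for input abundance and mapped to Kd with protein pairs of known affinity run in the same pool. Each pool was mated in six replicate cultures.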

Parent scFv Ab-14: VH joined to VL by the linker GGGGSGGGGSGGGGS. Changes lie in the heavy chain CDRs alone.
VH: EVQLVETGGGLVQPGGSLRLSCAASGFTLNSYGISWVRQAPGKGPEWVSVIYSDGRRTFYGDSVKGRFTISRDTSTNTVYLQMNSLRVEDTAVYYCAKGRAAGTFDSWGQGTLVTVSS
VL: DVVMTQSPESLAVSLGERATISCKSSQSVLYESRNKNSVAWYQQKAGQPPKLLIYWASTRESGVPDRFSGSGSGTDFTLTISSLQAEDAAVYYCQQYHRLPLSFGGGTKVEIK

Each variant is given by its three heavy chain CDRs, as the data file delimits them; those of the parent are GFTLNSYGIS, VIYSDGRRTFYGDSVK, GRAAGTFDS.
Affinities are written as log10 Kd with Kd in nM; a lower number is a better binder.
Averages over replicates are reported, and they cover detected replicates only.
An entry "ND" has no value in the source: the pair was not observed among the diploids in that replicate. This suggests poor binding but is not conclusive.
Three control strains display no target. For all heavy chain designs, 1% of the pairings with them gave a signal, with a median of 2.08 and one signal in twenty below 0.84, so weak values seen in few replicates may be background. Also given: how often the same scFv was detected with the empty control strains, with their mean in brackets.

CDR-H1	CDR-H2	CDR-H3	group	log10 Kd, replicates	mean log10 Kd (nM)	signal with controls
GFTLNSYGSS	VIYSDGRRTFYGDSTK	GRAAGTFDS	Ctrl	ND ND ND ND ND ND	ND	0/18
GFTLNSHGIS	VIYSDGLRTFYGDSVK	GRTAGTFDS	Ctrl	0.07 0.43 0.16 0.58 0.85 0.84	0.49	0/18
GFTLNSYGIS	VIYSDGRRTFYKDDVK	GEQAGTFDD	Ctrl	1.27 1.88 2.04 3.18 1.69 1.80	1.97	0/18
GFTNNSYGIS	VIYSDGRRTFYGDSVK	GRAAGTFHS	Ctrl	ND ND ND ND ND ND	ND	1/18 (1.73)
GITLNSYGSS	VIYSDGRRTFYGDSVK	DAAPGTFDS	Ctrl	ND ND ND ND ND ND	ND	0/18
GETLNSYGIS	VIYSDGRRTYYQDSVK	GRAEGTFKS	Ctrl	ND ND ND ND ND ND	ND	0/18
GVGLNSYGIS	VIYSDGRRTFYGDSVK	GRAAGDFDS	Ctrl	ND ND ND ND ND ND	ND	0/18
RFTLNSYGIS	VIYSDGRRTFYGDSVK	GRAAGSFDS	Ctrl	ND ND ND ND ND ND	ND	0/18
GFTLNSYGIS	VIYSDGRRAFYDDSVK	GIAAQTFDS	Ctrl	ND ND ND ND ND ND	ND	0/18
GFTLMSYGIS	VIYSDGKRTFYGDSVK	GRAAGTFDS	Ctrl	ND ND 2.86 ND ND 1.91	2.38	0/18
KFDLNSYGIH	VIYSDGRRTFYGDSVK	GSAAGTFDS	Ctrl	ND 2.60 ND ND 1.88 ND	2.24	1/18 (2.06)
GFTLNQYGIS	VIYSDGSRTFYGDSVK	GRAAGTFDH	Ctrl	ND ND ND ND ND ND	ND	0/18
GFTLNDQGIS	VIYSDGLRTFYGDSVK	GRAAGTFDS	Ctrl	ND ND 0.25 0.44 ND ND	0.34	0/18
GFTLLSYGIS	VIYSDGRRTFYGDSVK	GRAAGTFDQ	Ctrl	ND ND ND ND ND ND	ND	1/18 (0.82)
GFTLNSYGIS	VIYSDGRRTEYGDQVK	GQAAGTFDS	Ctrl	ND ND ND ND ND ND	ND	0/18
GFTLNEYGIS	VIYADGRRTFYGDSFK	GRAAGTFNS	Ctrl	-0.06 0.60 0.03 0.12 -0.01 0.46	0.19	1/18 (1.77)
GFTLNKYGIS	VIYSDGRRTFYGDSVK	GRAVGTFKS	Ctrl	ND ND ND ND ND ND	ND	0/18
GQPLNSYGIS	VIYSDGIRTFYGDSVK	GRLAGTFDV	Ctrl	ND ND ND ND ND ND	ND	1/18 (0.96)
GFHLNSYGSS	VIYSDGRRTFYGDSVK	GRATGTFDS	Ctrl	ND ND ND ND ND ND	ND	0/18
GFTLNSYGIS	VIYSDGRRTFYKDFVK	GRAAGTFCS	Ctrl	ND 1.83 ND ND ND 2.33	2.08	0/18
GFTLNSYGIS	VIYSDGRRVFYGDSVK	GRQAGTFDS	Ctrl	1.67 2.96 1.92 2.62 ND 2.43	2.32	2/18 (2.75)
GFTLNSYGIS	VIYSDGRRTFYIDSVK	NRAAGTWDS	Ctrl	ND ND ND ND ND ND	ND	0/18
GFTIEEYGIS	VIYSDGRRTFYTDSVK	GRAAATFDS	Ctrl	ND ND ND ND ND ND	ND	1/18 (1.26)
HFTLNSYGIS	VIYSDGRRTFYGDTVK	GRAAGTFDS	Ctrl	2.30 ND ND ND ND ND	2.30	0/18
GFTLNSYGIS	VIYSDGRRTFYADSVK	GRAAGTFSS	Ctrl	ND ND 2.67 ND ND 2.15	2.41	0/18
GFELNSYGIS	VIYADGRRTFYGDSVK	GRAAGTFDS	Ctrl+GPLM_Gen	-0.01 0.18 -0.19 -0.08 0.00 0.04; -0.16 -0.18 -0.46 -0.53 -0.01 0.12	-0.11	0/36
GFTLQSYGIS	VIYSDGRRTFYGDSVK	GRAAGTFDS	Ctrl	ND ND ND ND ND ND	ND	1/18 (1.19)
GFTLNSYGIS	VIYSDGVRTFYHDSVK	GRAAGTFDY	Ctrl	ND ND ND ND ND ND	ND	1/18 (1.82)
GFALNSYGIS	VIYSDGRRVFYGDRVK	GRAAGTFDS	Ctrl	ND 2.51 ND ND ND ND	2.51	0/18
GFTLNSYGIS	VIYSDGLRTFYGDAVK	GRHAGTFDS	Ctrl	0.83 1.85 1.07 1.22 1.16 0.42	1.09	0/18
GFELNSYGIS	VIYSDGRRTFYGDSVR	GQAAGTFDS	Ctrl	2.20 1.50 1.38 0.55 1.02 1.39	1.34	0/18
GFSLNSYGIS	VIYSDGRRTFYQDSVK	GRNAGYFDS	Ctrl	ND ND ND ND 3.01 ND	3.01	0/18
GFTLESYGIS	VIYSDGRRTFYGQAVK	GRWAGTFDS	Ctrl	ND ND ND ND ND ND	ND	0/18
GFTLNSYGIS	VIYSDGRRTFYLDSVK	GRAAGTMDS	Ctrl	ND ND ND ND ND ND	ND	0/18
GFTLNSYGIS	VIYSDGRRTFYGDAVK	GREAGWFDL	Ctrl	ND ND ND ND ND ND	ND	0/18
GFTPNSYGIS	VIYSDGRRTFYGDSVK	VRAAGTTDS	Ctrl	ND ND ND ND ND ND	ND	0/18
GTALNSYGYS	VIYSDGRRTGYGDSVK	GRAGGIFDS	Ctrl	ND ND ND ND ND ND	ND	0/18
GFTLNSYGIS	VIYSDGRRTGYGDSVK	GRAAGTFDD	Ctrl	ND ND ND ND ND ND	ND	0/18
GFTLNSYGIS	VIYSDGRRTFYGDSFK	GRAAATFDS	Ctrl	ND ND 0.90 ND ND ND	0.90	1/18 (1.44)
GFMLNSYGIS	VIYSDGRRTFYGDSVK	GRAAGTFDS	Ctrl	1.65 0.02 1.46 1.94 2.75 1.45	1.55	0/18
GFTLNSYGIS	VIYSDGRRTFYGDSVK	GRQAGTFCS	Ctrl	ND ND ND ND ND ND	ND	0/18
GAVLNSYGIS	VIYSDGRRTFYGDSVK	GTNAGTFDS	Ctrl	0.73 1.78 1.08 2.50 1.39 1.80	1.55	0/18
GFTLNEYGIS	VIYSDGRRTFYGDSVK	GSAAGRFDS	Ctrl	ND ND ND ND ND ND	ND	2/18 (3.32)
GETLNMYGIS	VIYSDGRRTFYGDSVK	GRAAGTFDS	Ctrl	ND ND ND 3.37 ND ND	3.37	1/18 (4.72)
GFTLNEYGIS	VIYSDGRRTFYQDSVK	GRAAGTFLM	Ctrl	ND ND ND ND ND ND	ND	0/18
GFTLNSYGIS	VIYSDGRRTFYADSVK	GEAAGTFRS	Ctrl	ND ND ND ND ND ND	ND	0/18
GFRLNSYGIS	VIYSDGKRTFYGDSVK	GRAAGTFSS	Ctrl	ND ND ND ND ND ND	ND	0/18

For reference, 5 entries of the list once more:

CDR-H1	CDR-H2	CDR-H3	group	log10 Kd, replicates	mean log10 Kd (nM)	signal with controls
GFSLNSYGIS	VIYSDGRRTFYQDSVK	GRNAGYFDS	Ctrl	ND ND ND ND 3.01 ND	3.01	0/18
GFTLNSYGIS	VIYSDGRRTEYGDQVK	GQAAGTFDS	Ctrl	ND ND ND ND ND ND	ND	0/18
GFTPNSYGIS	VIYSDGRRTFYGDSVK	VRAAGTTDS	Ctrl	ND ND ND ND ND ND	ND	0/18
GFTLNSYGIS	VIYSDGVRTFYHDSVK	GRAAGTFDY	Ctrl	ND ND ND ND ND ND	ND	1/18 (1.82)
GFALNSYGIS	VIYSDGRRVFYGDRVK	GRAAGTFDS	Ctrl	ND 2.51 ND ND ND ND	2.51	0/18

Of ten entries with the parent sequence, four were seen in most replicates (averages 0.34 to 2.37), three in one and three in none, so single entries are noisy.
In the paper, a design with two or fewer of six values counts as a poor binder.
A sequence that the file lists under several names has all its replicates listed entry by entry, parted by semicolons.
A sequence measured in both rounds can read differently, since the two assays cover different ranges.

The measurements come from Li et al. 2023 (doi:10.1038/s41467-023-39022-2) through the FLAb antibody collection.